# According to patent US20230203098A1, “HUMAN TRANSFERRIN RECEPTOR BINDING PEPTIDE” (priority 2020, published 2023):
# Sequences of proteins named here, by UniProt entry; tags and fusion partners are left off.
# UniProt P02786, whole entry: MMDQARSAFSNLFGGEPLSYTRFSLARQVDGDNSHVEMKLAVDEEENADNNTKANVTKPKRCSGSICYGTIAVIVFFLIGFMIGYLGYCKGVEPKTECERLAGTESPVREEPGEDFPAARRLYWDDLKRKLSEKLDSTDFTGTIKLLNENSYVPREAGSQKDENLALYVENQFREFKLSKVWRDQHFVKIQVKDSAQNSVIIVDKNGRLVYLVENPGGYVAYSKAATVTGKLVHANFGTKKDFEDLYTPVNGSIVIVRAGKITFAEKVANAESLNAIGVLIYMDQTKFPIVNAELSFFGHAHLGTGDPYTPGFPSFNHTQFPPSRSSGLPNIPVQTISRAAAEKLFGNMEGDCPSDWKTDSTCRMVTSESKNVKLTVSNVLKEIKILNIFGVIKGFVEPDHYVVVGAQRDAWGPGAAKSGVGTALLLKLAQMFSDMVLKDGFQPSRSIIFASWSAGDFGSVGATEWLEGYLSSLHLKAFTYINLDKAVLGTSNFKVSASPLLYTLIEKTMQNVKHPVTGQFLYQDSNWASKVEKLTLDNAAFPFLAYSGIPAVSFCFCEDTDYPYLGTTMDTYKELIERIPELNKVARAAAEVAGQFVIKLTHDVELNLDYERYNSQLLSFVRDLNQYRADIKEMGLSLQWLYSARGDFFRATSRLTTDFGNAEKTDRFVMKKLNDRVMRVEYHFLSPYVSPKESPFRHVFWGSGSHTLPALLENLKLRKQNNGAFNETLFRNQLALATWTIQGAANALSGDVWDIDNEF
# Target: transferrin receptor (hTfR) (Homo sapiens, UniProt P02786)
# Experiment: Intermolecular interaction evaluation test between transferrin receptor (hTfR) and peptide by surface plasmon resonance (SPR)
# Type: binding
# Conditions: SPR; hTfR No. 894 variants with PEG12c linker (Table 2); read-out: KD
# Protocol: For each of the various synthesized peptides, the intermolecular interaction of the peptide with the transferrin receptor (hTfR) was tested by surface plasmon resonance (SPR) according to the following method. The specific test method is as follows.
# An NTA sensor chip (Global Life Sciences Technologies Japan) was inserted in a Biacore T200 (Global Life Sciences Technologies Japan) and a prime operation was performed 3 times with a running buffer: 10 mM HEPES pH 8.0 (Nacalai Tesque), 150 mM NaCl (Nacalai Tesque), 0.05% Tween 20 (Nacalai Tesque), 0.1% BSA (Sigma-Aldrich), 1.0% DMSO (FUJIFILM Wako Pure Chemical) to create an Equilibration state at a flow rate of 30 µL/min. After reacting with 350 mM EDTA solution for 60 seconds at a flow rate of 10 µL/min then reacting with 0.5 mM NiCl2 solution (Kishida Chemical) for 60 seconds at a flow rate of 10 µL/min, the NTA sensor chip was washed with 3 mM EDTA solution (Nacalai Tesque) for 60 seconds at a flow rate of 10 µL/min. After mixing 50 µL each of 60 mM EDC solution (Global Life Sciences Technologies Japan) and 650 mM NHS solution (Global Life Sciences Technologies Japan), the mixture was reacted for 420 seconds at a flow rate of 10 µL/min. By diluting with the running buffer, 150 µL of 3.2 µM hTfR solution was prepared and used for reaction for 600 seconds at a flow rate of 10 µL/min, thereby immobilizing hTfR on the NTA sensor chip. After immobilization, capping was performed by reacting with 1.0 M ethanolamine aqueous solution (Global Life Sciences Technologies Japan) for 420 seconds at a flow rate of 10 µL/min. A peptide dissolution liquid prepared to 10 mM in the DMSO solution was diluted with the running buffer to a final concentration of 10 µM so as to become the peptide dissolution liquid, then peptide solutions of 100 nM, 50 nM, 25 nM, 10 nM and 5 nM were prepared. Kinetics of the peptide to hTfR was acquired by SPR measurement using the above-mentioned samples. Single-cycle kinetics was used as a kinetic evaluation model and curve fitting was performed using Biacore T200 Evaluation Software Version 3.0 (Global Life Sciences Technologies Japan). An obtained sensorgram was subjected to curve fitting using the least-squares method, and the binding of the peptide to hTfR was evaluated by obtaining KD values. […] A chemical structure of hTfR No. 894 is as follows.
# The variant peptides were synthesized according to Example 1 unless otherwise stated in Example 9 or 10. The linker-added peptides were synthesized according to Example 1, except that Fmoc-NH-SAL-PEG resin (Watanabe Chemical Industries) was used as a resin for the peptide synthesis when the linker was PEG. The peptide, to which a peptide, a fatty acid, PEG, or a conjugate thereof is added as a linker, was also synthesized according to Example 1, unless otherwise stated in Example 9 or 10.
row,Structure (SMILES),Kd
1,CC[C@H](C)[C@@H]1NC(=O)[C@H](Cc2ccc(O)cc2)NC(=O)[C@H](Cc2ccc(O)cc2)NC(=O)[C@H](CC(N)=O)NC(=O)[C@H](Cc2c[nH]c3ccccc23)NC(=O)[C@H](CO)NC(=O)[C@H](Cc2ccccc2)N(C)C(=O)[C@H](C(C)C)NC(=O)[C@H](C)NC(=O)CSC[C@@H](C(=O)NCCOCCOCCOCCOCCOCCOCCOCCOCCOCCOCCOCCOCCC(N)=O)NC(=O)[C@H](Cc2ccc(O)cc2)N(C)C(=O)[C@H](Cc2ccc(O)cc2)NC(=O)[C@H](CCCNC(=N)N)NC(=O)[C@H](CCCNC(=N)N)NC(=O)[C@H]([C@@H](C)CC)NC1=O [compound 141],100 to 1000 nM
2,CC[C@H](C)[C@@H]1NC(=O)[C@H](Cc2ccc(O)cc2)NC(=O)[C@H](Cc2ccc(O)cc2)NC(=O)[C@H](CC(N)=O)NC(=O)[C@H](Cc2c[nH]c3ccccc23)NC(=O)[C@H](C)NC(=O)[C@H](Cc2ccccc2)N(C)C(=O)[C@H](C(C)C)NC(=O)[C@H](C)NC(=O)CSC[C@@H](C(=O)NCCOCCOCCOCCOCCOCCOCCOCCOCCOCCOCCOCCOCCC(N)=O)NC(=O)[C@H](Cc2ccc(O)cc2)N(C)C(=O)[C@H](Cc2ccc(O)cc2)NC(=O)[C@H](CCCNC(=N)N)NC(=O)[C@H](CCCNC(=N)N)NC(=O)[C@H]([C@@H](C)CC)NC1=O [compound 144],100 to 1000 nM

# Next, values leading:
row,Kd,Structure (SMILES)
1,100 to 1000 nM,CC[C@H](C)[C@@H]1NC(=O)[C@H](Cc2ccc(O)cc2)NC(=O)[C@H](Cc2ccc(O)cc2)NC(=O)[C@H](CC(N)=O)NC(=O)[C@H](Cc2c[nH]c3ccccc23)NC(=O)CNC(=O)[C@H](Cc2ccccc2)N(C)C(=O)[C@H](C(C)C)NC(=O)[C@H](C)NC(=O)CSC[C@@H](C(=O)NCCOCCOCCOCCOCCOCCOCCOCCOCCOCCOCCOCCOCCC(N)=O)NC(=O)[C@H](Cc2ccc(O)cc2)N(C)C(=O)[C@H](Cc2ccc(O)cc2)NC(=O)[C@H](CCCNC(=N)N)NC(=O)[C@H](CCCNC(=N)N)NC(=O)[C@H]([C@@H](C)CC)NC1=O [compound 126]
2,100 to 1000 nM,CC[C@H](C)[C@@H]1NC(=O)[C@H](Cc2ccc(O)cc2)NC(=O)[C@H](Cc2ccc(O)cc2)NC(=O)[C@H](CC(N)=O)NC(=O)[C@H](Cc2c[nH]c3ccccc23)NC(=O)[C@H](C(C)C)NC(=O)[C@H](Cc2ccccc2)N(C)C(=O)[C@H](C(C)C)NC(=O)[C@H](Cc2ccccc2)NC(=O)CSC[C@@H](C(=O)NCCOCCOCCOCCOCCOCCOCCOCCOCCOCCOCCOCCOCCC(N)=O)NC(=O)[C@H](Cc2ccc(O)cc2)N(C)C(=O)[C@H](Cc2ccc(O)cc2)NC(=O)[C@H](CCCNC(=N)N)NC(=O)[C@H](CCCNC(=N)N)NC(=O)[C@H]([C@@H](C)CC)NC1=O [compound 138]
3,1 to 100 nM,CC[C@H](C)[C@@H]1NC(=O)[C@H](Cc2ccc(O)cc2)NC(=O)[C@H](Cc2ccc(O)cc2)NC(=O)[C@H](CC(N)=O)NC(=O)[C@H](Cc2c[nH]c3ccccc23)NC(=O)[C@H](C(C)C)NC(=O)[C@H](Cc2ccccc2)N(C)C(=O)[C@H](C(C)C)NC(=O)CNC(=O)CSC[C@@H](C(=O)NCCOCCOCCOCCOCCOCCOCCOCCOCCOCCOCCOCCOCCC(N)=O)NC(=O)[C@H](Cc2ccc(O)cc2)N(C)C(=O)[C@H](Cc2ccc(O)cc2)NC(=O)[C@H](CCCNC(=N)N)NC(=O)[C@H](CCCNC(=N)N)NC(=O)[C@H]([C@@H](C)CC)NC1=O [compound 131]
4,1 to 100 nM,CC[C@H](C)[C@@H]1NC(=O)[C@H](Cc2ccc(O)cc2)NC(=O)[C@H](Cc2ccc(O)cc2)NC(=O)[C@H](CC(N)=O)NC(=O)[C@H](Cc2c[nH]c3ccccc23)NC(=O)[C@H](C(C)C)NC(=O)[C@H](Cc2ccccc2)N(C)C(=O)[C@H](C(C)C)NC(=O)[C@H](CO)NC(=O)CSC[C@@H](C(=O)NCCOCCOCCOCCOCCOCCOCCOCCOCCOCCOCCOCCOCCC(N)=O)NC(=O)[C@H](Cc2ccc(O)cc2)N(C)C(=O)[C@H](Cc2ccc(O)cc2)NC(=O)[C@H](CCCNC(=N)N)NC(=O)[C@H](CCCNC(=N)N)NC(=O)[C@H]([C@@H](C)CC)NC1=O [compound 132]

# Same assay, conditions: hTfR binding by SPR; hTfR No. 894 variant peptides, linker-added peptides and payload conjugates (Table 2); read-out: KD value obtained from the SPR measurement
row,Kd,Structure (SMILES)
1,1 to 100 nM,CC[C@H](C)[C@@H]1NC(=O)[C@H](Cc2ccc(O)cc2)NC(=O)[C@H](Cc2ccc(O)cc2)NC(=O)[C@H](CC(N)=O)NC(=O)[C@H](Cc2c[nH]c3ccccc23)NC(=O)[C@H](C(C)C)NC(=O)[C@H](Cc2ccccc2)N(C)C(=O)[C@H](C(C)C)NC(=O)[C@H](C)NC(=O)CSC[C@@H](C(=O)NCC(=O)NCC(=O)N[C@@H](CO)C(=O)NCC(=O)N[C@@H](CCC(=O)O)C(=O)N[C@@H](CO)C(=O)N[C@@H](CCCCNC(=O)C2CCC(CN3C(=O)C=CC3=O)CC2)C(N)=O)NC(=O)[C@H](Cc2ccc(O)cc2)N(C)C(=O)[C@H](Cc2ccc(O)cc2)NC(=O)[C@H](CCCNC(=N)N)NC(=O)[C@H](CCCNC(=N)N)NC(=O)[C@H]([C@@H](C)CC)NC1=O (stereo partly shown) [compound 191]
